{
  "sequences": {"note": "Chains of the proteins cited; added tags and fusions are not shown. Residues count along the entry.", "UniProt P43220, 24-463": "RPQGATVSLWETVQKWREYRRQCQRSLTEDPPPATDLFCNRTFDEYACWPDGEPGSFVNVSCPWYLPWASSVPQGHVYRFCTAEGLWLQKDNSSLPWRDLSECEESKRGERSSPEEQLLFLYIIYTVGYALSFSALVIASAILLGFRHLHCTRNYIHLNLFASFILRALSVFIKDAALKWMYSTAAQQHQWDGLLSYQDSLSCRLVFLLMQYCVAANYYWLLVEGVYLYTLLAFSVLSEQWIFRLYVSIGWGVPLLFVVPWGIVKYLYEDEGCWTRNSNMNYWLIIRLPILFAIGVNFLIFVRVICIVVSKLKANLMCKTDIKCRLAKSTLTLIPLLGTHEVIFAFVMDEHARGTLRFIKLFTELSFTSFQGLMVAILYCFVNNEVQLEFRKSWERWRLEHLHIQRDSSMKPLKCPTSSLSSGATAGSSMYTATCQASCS"},
  "source": "patent US10100097B2",
  "about": "“GIP-GLP-1 dual agonist compounds and methods” (Zealand Pharma A/S, priority 2012, dated 2018)",
  "biological_target": "T1, human GLP-1 R (Homo sapiens, UniProt P43220)",
  "T1 construct": "expressed in transfected cells",
  "assay": "Human GLP-1 receptor (GLP-1 R) activity assay, cAMP induction (AlphaScreen cAMP kit)",
  "assay_type": "cell-based",
  "method": "Human GIP Receptor (GIP R) and GLP-1 Receptor (GLP-1 R) Activity Assay\nIn vitro effects of peptide conjugates of the invention were assessed by measuring the induction of cAMP following stimulation of the respective receptor by GIP, GLP1 or analogues of these, as outlined in the invention, using the AlphaSceen® cAMP kit from Perkin-Elmer according to instructions. Briefly. HEK293 cells expressing the human GIP R or GLP-1 R (stable cell lines generated through transfection of the cDNA for human GIP R or GLP-1 and selection of stable clones) were seeded at 30,000 cells/well in 96-well microtiter plates coated with 0.01% poly-L-lysine, and grown for 1 day in culture in 200 μl growth medium (DMEM, 10% FCS, Penicillin (100 IU/ml), Streptomycin (100 μg/ml)). On the day of analysis, growth medium was removed and the cells were washed once with […] Tyrode's buffer (Tyrode's Salts (9.6 g/1), 10 mM HEPES, pH 7.4). […] The Assay buffer was removed and cells are lysed in 80 μl Lysis buffer (0.1% w/v BSA, 5 mM HEPES, 0.3% v/v Tween-20) per well. […] The plates were mixed and incubated in the dark for an hour at room temperature before measuring using an Envision™ plate reader (Perkin-Elmer).",
  "data": [
    {"smiles": "CCCCCCCCCCCCCCCC(=O)N[C@@H](CCC(=O)NCCCC[C@H](NC(=O)[C@H](CCCCN)NC(=O)[C@H](CC(=O)O)NC(=O)[C@H](CC(C)C)NC(=O)[C@H](C)NC(=O)[C@@H](NC(=O)[C@H](CO)NC(=O)[C@H](Cc1ccc(O)cc1)NC(=O)[C@H](CC(=O)O)NC(=O)[C@H](CO)NC(=O)[C@@H](NC(=O)[C@H](Cc1ccccc1)NC(=O)[C@@H](NC(=O)CNC(=O)[C@H](CCC(=O)O)NC(=O)C(C)(C)NC(=O)[C@@H](N)Cc1ccc(O)cc1)[C@@H](C)O)[C@@H](C)O)[C@@H](C)CC)C(=O)N[C@@H](C)C(=O)N[C@@H](CCC(N)=O)C(=O)N[C@@H](CCCNC(=N)N)C(=O)N[C@@H](C)C(=O)N[C@@H](Cc1ccccc1)C(=O)N[C@H](C(=O)N[C@@H](CC(N)=O)C(=O)N[C@@H](Cc1c[nH]c2ccccc12)C(=O)N[C@@H](CC(C)C)C(=O)N[C@H](C(=O)N[C@@H](C)C(=O)NC(C)(C)C(=O)N[C@@H](CCCCN)C(=O)N1CCC[C@H]1C(=O)N[C@@H](CO)C(=O)N[C@@H](CO)C(=O)NCC(=O)N[C@@H](C)C(=O)N1CCC[C@H]1C(=O)N1CCC[C@H]1C(=O)N1CCC[C@H]1C(=O)N[C@@H](CO)C(N)=O)C(C)C)C(C)C)C(=O)O", "note": "[Compound 36]", "values": [
      {"measurement": "EC50", "result": 15, "unit": "pM"}
    ]}
  ]
}
